{
  "source": "patent US8530468B2",
  "about": "(Cancer Research Technology Limited, priority 2008, dated 2013)",
  "key": {"[1]": {"system": "HT29 colon carcinoma cells", "assay": "Cytotoxicity assay (SRB)", "assay_type": "cell-based", "conditions": "Homo sapiens, HT-29, 96 h, read-out: SRB IC50 (concentration required to inhibit growth by 50%)", "experimental": "HT29 colon carcinoma cells were obtained from ATCC (Rockville, Md., USA). Cells were grown in DMEM supplemented with 10% foetal calf serum and containing L-glutamine 5 mM, glucose, penicillin, and streptomycin. Cells were grown at 37° C. in a dry 5% CO2 atmosphere. Cytotoxicity assays were carried out in 96-well plates using quadruplicate wells for each dose. Cells were seeded at 1.6×10^3 per well in 160 μL medium and were allowed to attach for 36 hours prior to treatment. Test compounds were dissolved in DMSO at 10 mM and serially diluted in culture medium to 5× final concentration prior to addition in a volume of 40 μl per well. Cells were left for 4 doublings (96 hours) in the presence of the test compounds and then fixed in 10% TCA for 30 minutes, washed in water, and dried. The fixed cells were stained with Sulfurhodamine B (SRB, 0.4% in 1% acetic acid, Sigma, Dorset, UK) for 30 minutes, washed in 1% acetic acid, and dried. SRB was resolubilised in 10 mM Tris base and the OD was measured at 490 nm. Results were expressed relative to untreated controls and the concentration of compound required to inhibit growth by 50% (SRB IC50) was calculated."}, "HT29 cells": {"system": "HT29 cells", "assay": "Mitosis inhibition assay (MIA), checkpoint abrogation after etoposide", "assay_type": "cell-based", "conditions": "Homo sapiens, HT-29, HT29 cells, etoposide 50 μM 1 hour, then compound with nocodazole 100 ng/mL, 21 hours; read-out: MIA IC50 (concentration required to allow 50% of cells to enter mitosis)", "experimental": "Checkpoint abrogation by CHK1 kinase function inhibitors in combination with genotoxic agents was assessed using a europium based ELISA assay designed to quantify the number of cells trapped in mitosis after treatment with a genotoxic agent (to induce G2 arrest) followed by a test compound in combination with nocodazole to abrogate this arrest.\nHT29 cells were seeded at 10^4 cells per well into 96 well plates in a volume of 160 μL and left to attach for 36 hours. Etoposide (10 mM stock in DMSO) was diluted in medium to 250 μM and then 40 μL was added to appropriate wells to give a final concentration of 50 μM and incubated for 1 hour. This treatment had previously been optimised to induce a G2 arrest in 80% of cells 16 hours following treatment. After genotoxic drug exposure, the medium was removed and replaced with fresh medium (160 μL). Cells were either untreated (untreated control or etoposide pre-treatment alone), exposed to nocodazole following etoposide pre-treatment or nocodazole alone (100 ng/mL final concentration), or exposed to increasing concentrations of test compound (200 μM-0.01 nM final concentration) in combination with nocodazole (100 ng/mL final concentration). Test compounds were added in 40 μL using quadruplicate wells for each dose. […] Europium emissions were counted on a Wallac, Victor^2 counter (Perkin-Elmer, Bucks UK). […]"}},
  "data": [
    {"compound": "N#Cc1cnc(Nc2cc3[nH]cnc3cn2)cn1", "note": "[BB-012, 5-(1H-imidazo[4,5-c]pyridin-6-ylamino)pyrazine-2-carbonitrile]", "values": [
      {"measurement": "IC50", "setting": "[1]", "result": 61, "unit": "µM"},
      {"measurement": "IC50", "setting": "HT29 cells", "result": 33, "unit": "µM"}
    ]}
  ]
}
